Source: ChEMBL document CHEMBL1955771, “VX-322: a novel dual receptor tyrosine kinase inhibitor for the treatment of acute myelogenous leukemia” (J Med Chem, 2012)

Organism: Homo sapiens
Test: Selectivity ratio of IC50 for human recombinant c-Kit to IC50 for wild type human recombinant FLT3

`COc1ccc(N2CCOCC2)cc1Nc1nc(N)n(-c2ccccn2)n1` was tested, and the Ratio IC50 was 64.
